The subject of the test is human β-cells (dispersed human pancreatic islets). In kind it is cell-based. The conditions noted are these: doses of 3–30 μM.

“Also recorded” adds a separate entry of the source.

For `COc1ccc2c(c1)[nH]c1c(CO)nccc12` [Compound 2–2, 1-Hydroxymethyl-7-methoxy-9H-β-carboline], the “human β-cell proliferation in words, dose response / overall” value is given as “excellent human β-cell proliferation; also recorded: caused proliferation in a dose-dependent manner; also recorded: comparable to that of harmine”.

For the origin of these results see article PMC6350255 (Journal of medicinal chemistry, 2018).
